Reference: US20200246284A1 (Academia Sinica, priority 2015, published 2020)

System: cord blood hematopoietic progenitors (CD34+ cells, CFC)
Assay: Cytotoxicity normal tissue 72 hr (Table 27)

SMILES | IC50
N.N.[Cl][Pt][Cl] [Cisplatin] | 6 µM
CCc1c2c(nc3ccc(O)cc13)-c1cc3c(c(=O)n1C2)COC(=O)[C@]3(O)CC [SN-38] | 7 µM
